This note sets out measurements from patent US6376200B1, “Kainate-binding, human CNS receptors of the EAA4 family” (priority 1992, dated 2002).

Protein sequences, listed by entry. Tags and fused reporters are not part of them. Residues count along the entry.
UniProt Q13002, 32-908: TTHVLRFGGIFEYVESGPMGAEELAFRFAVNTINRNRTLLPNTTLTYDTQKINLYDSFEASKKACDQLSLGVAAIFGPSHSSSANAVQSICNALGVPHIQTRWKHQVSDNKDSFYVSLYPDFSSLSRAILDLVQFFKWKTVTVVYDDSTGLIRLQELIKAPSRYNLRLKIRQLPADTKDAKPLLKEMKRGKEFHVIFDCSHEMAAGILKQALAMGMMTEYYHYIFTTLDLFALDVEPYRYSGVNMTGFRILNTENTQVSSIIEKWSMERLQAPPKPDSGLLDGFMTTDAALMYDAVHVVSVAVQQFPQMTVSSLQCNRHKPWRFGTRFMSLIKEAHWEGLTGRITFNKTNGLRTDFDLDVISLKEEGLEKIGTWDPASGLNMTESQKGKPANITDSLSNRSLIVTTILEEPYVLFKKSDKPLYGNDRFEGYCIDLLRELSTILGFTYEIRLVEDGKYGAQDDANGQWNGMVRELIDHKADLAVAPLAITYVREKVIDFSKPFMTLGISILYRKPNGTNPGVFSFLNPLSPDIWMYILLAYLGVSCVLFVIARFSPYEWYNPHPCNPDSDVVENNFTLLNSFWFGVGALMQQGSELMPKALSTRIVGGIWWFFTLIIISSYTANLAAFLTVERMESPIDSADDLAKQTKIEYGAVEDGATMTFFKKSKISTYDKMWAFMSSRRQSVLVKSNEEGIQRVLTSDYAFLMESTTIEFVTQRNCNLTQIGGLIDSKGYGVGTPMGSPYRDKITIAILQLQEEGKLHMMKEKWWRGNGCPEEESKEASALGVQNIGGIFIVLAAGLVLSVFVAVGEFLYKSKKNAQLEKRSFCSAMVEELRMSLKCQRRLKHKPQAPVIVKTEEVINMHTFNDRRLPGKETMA

In this assay the target is human EAA4a receptor (Homo sapiens, UniProt Q13002). It is filed as cell-based. Also on record: transported to the cell surface in mature form, lacking the signal peptide and consisting of 877 amino acids; expressed in transfected cells; host or cells: Xenopus oocytes (stage V or VI), nuclear injection of pcDNAI/humEAA4a DNA. The method, then:
Xenopus oocytes (stage V or VI) were harvested and the nucleus of the oocytes was injected with 5 ng of pcDNAI/humEAA4a DNA.

SMILES strings stand for the structures.

Turning to `N[C@@H](CCC(=O)O)C(=O)O` [L-glutamate], the “current/voltage (I/V) relationship” value is on record as “strongly rectified” and the “desensitization in the continuing presence of agonist” value is on record as “rapidly desensitized”.
